Experimental data taken from PubChem BioAssay AID2629 (Broad Institute, 2010).
The entries are a selection whose mix differs from that of the whole data set. Some of these compounds have results that are not shown, active ones among them. Calls of active or inactive are those of the source. No stated cut-off is given here; in the data, active means inhibition mostly above about 10% (no sharp cut-off); inactive means mostly below about 6.7%.

By UniProt entry, the sequences of proteins in these tests, tags left out.
UniProt Q9QR71, whole entry: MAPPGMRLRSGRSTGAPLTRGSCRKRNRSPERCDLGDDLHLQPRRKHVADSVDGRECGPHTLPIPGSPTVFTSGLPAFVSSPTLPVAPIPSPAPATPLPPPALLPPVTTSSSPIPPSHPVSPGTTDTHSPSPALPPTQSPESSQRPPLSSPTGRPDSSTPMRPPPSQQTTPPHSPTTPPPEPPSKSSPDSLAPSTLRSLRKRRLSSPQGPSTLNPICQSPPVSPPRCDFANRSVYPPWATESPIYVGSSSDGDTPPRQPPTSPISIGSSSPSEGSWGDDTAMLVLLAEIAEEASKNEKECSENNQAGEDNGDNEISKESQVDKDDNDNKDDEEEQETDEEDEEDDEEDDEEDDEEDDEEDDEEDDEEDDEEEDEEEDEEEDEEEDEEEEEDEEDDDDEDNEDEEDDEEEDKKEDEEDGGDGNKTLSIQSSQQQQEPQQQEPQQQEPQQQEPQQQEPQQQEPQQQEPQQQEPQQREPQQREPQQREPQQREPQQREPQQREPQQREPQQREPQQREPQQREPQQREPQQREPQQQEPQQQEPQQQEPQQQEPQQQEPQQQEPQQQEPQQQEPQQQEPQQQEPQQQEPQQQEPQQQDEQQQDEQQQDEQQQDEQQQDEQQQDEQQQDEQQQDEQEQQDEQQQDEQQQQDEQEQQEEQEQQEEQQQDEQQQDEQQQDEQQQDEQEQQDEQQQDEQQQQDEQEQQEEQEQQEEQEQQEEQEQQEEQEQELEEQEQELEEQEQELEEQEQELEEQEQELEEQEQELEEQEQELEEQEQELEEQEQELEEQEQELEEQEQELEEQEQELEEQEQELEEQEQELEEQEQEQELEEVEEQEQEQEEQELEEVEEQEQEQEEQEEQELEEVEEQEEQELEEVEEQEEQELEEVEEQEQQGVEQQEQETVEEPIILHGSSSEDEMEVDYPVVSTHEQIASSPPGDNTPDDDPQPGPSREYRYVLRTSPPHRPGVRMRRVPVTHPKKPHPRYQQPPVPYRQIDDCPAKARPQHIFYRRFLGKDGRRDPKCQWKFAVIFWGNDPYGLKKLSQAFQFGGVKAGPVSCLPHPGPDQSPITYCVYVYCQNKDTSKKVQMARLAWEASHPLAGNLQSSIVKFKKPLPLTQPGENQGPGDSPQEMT

Target: Protein LANA1 (Human herpesvirus 8 type P (isolate GK18)) (UniProt Q9QR71)
Assay: blockers of LANA interaction with H2A/H2B – biochemical, FP readout, HTS, primary screen (AID 2629)
Settings: cell-free LANA-H2A/H2B peptide, fluorescence polarization; hits give high values; concentration not given here

SMILES	inhibition
CN1[C@@H]2CC[C@H]1CC(OC(=O)C(O)(c1ccccc1)c1ccccc1)C2 (some centres undefined)	inactive: 2.1%
O=C(NCC1(N2CCCCC2)CCCCC1)c1cc([N+](=O)[O-])ccc1Cl	inactive: 6.45%
Cc1ccc(C(=O)NCC2(N3CCCCC3)CCCCC2)cc1	inactive: -4.83%
CC(C)N1C(=O)CC2(CCN(CCOC(=O)C(O)(c3ccccc3)c3ccccc3)CC2)C1=O	inactive: -4.82%
COc1cc(SC)ccc1C(=O)NCC1(N(C)C)CCCCC1	inactive: -0.889%
CCN(CC)CC(C)C(C)OC(=O)C(O)(c1ccccc1)c1ccccc1 (centres undefined)	inactive: 4.04%
CN(C)C1CCCC1OC(=O)C(O)(c1ccccc1)c1ccccc1 (centres undefined)	inactive: -7.65%
CN(C)c1ccc(C(=O)NCC2(N(C)C)CCCCC2)cc1	inactive: 1.39%
Cc1ccccc1C(=O)NCC1(N2CCCCC2)CCCCC1	inactive: -1.03%
O=C(NCC1(N2CCCCC2)CCCCC1)c1cccc(Br)c1	inactive: 3.02%
Cc1cc(C(=O)NCC2(N3CCCCC3)CCCCC2)ccc1[N+](=O)[O-]	inactive: -7.9%
CCN1CCCC(OC(=O)C2(O)c3ccccc3C=Cc3ccccc32)C1 (centres undefined)	inactive: -7%
COc1ccc(C(=O)NCC2(N(C)C)CCCCC2)cc1	inactive: 2.03%
O=C(NCC1(N2CCCCC2)CCCCC1)c1cc(F)c(F)cc1Cl	inactive: 3.23%
C=CCN1CCN(CCOC(=O)C(O)(c2ccccc2)c2ccccc2)CC1	inactive: -1.31%
COc1cc(C(=O)NCC2(N(C)C)CCCCC2)c([N+](=O)[O-])cc1OC	inactive: 2.04%
CN(C)C1(CNC(=O)c2ccc(Br)cc2)CCCCC1	inactive: 1.17%
O=C(NCC1(N2CCCCC2)CCCCC1)c1cccc(Cl)c1	inactive: 6.35%
COc1ccc(Cl)cc1C(=O)NCC1(N(C)C)CCCCC1	inactive: 8.21%
COc1cccc(C(=O)NCC2(N3CCCCC3)CCCCC2)c1	inactive: 3.7%
O=C(OC1CN2CCC1CC2)C(CO)(c1ccccc1)c1ccccc1 (centres undefined)	inactive: -5.73%
CN(C)c1cccc(C(=O)NCC2(N(C)C)CCCCC2)c1	inactive: 0.302%
CC(C)Oc1ccc(C(=O)NCC2(N(C)C)CCCCC2)cc1	inactive: 4.41%
COc1ccc(Br)c(C(=O)NCC2(N3CCCCC3)CCCCC2)c1	inactive: 2.23%
